# Counter-ions that a name gives are not always drawn.
# Sequences of proteins named here, by UniProt entry; tags and fusion partners are left off.
# UniProt P31645, whole entry: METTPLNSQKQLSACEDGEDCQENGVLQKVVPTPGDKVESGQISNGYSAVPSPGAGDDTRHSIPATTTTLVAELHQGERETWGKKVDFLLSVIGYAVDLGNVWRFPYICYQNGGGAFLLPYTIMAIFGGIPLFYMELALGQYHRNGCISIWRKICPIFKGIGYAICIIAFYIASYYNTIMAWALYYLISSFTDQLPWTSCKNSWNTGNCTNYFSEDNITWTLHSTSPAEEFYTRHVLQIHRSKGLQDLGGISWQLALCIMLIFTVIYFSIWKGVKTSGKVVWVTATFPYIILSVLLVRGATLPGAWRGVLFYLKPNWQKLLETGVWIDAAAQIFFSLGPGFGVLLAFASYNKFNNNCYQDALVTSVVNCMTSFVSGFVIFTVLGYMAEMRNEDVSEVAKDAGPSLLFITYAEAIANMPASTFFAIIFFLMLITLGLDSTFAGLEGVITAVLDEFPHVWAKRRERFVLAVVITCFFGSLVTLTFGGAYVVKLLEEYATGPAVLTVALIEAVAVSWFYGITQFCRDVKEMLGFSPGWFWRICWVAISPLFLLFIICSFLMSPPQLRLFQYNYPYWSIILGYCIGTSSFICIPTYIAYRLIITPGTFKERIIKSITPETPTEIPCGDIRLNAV
# How the values were obtained:
# [1] = molecular target: hNET; details: read-out: NET binding KD, competition assay, [3H]-nisoxetine; cited from earlier work
# [2] = molecular target: SERT (Homo sapiens, UniProt P31645); assay: cell-based
# [3] = molecular target: hDAT; details: read-out: DAT binding KD; competition assay, [3H]-WIN35428, hDAT; cited from earlier work
compound,measurement,setting,value
"CCOc1ccccc1OCC1CNCCO1 (stereo not drawn) [Viloxazine, Viloxazine hydrochloride]",Kd,[1],155 nM
same,IC50,[2],257 µM
same,Kd,[3],> 100 µM
